Screening data as filed in PubChem BioAssay.
miR-21 reporter: raises the signal of a miR-21 reporter | HeLa miR-21 FLuc reporter, luciferase, 48 h | Potency, µM (doses to about 38.3 µM), for the others: at the highest dose reporter change, positive = more light | 340,000 tested, under 10 active | AID 2288; active = well fitted rising curve with a large enough effect; inconclusive = small, poorly fitted or top-dose-only effect; inactive = no such curve, though single readings can be large or run the other way;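 also: % of control where 0% means no effect; miR-21 action dims this reporter so a rising signal means less miR-21 action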
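HeLa cells endogenously expressing miR-21, stably carrying CMV-driven firefly luciferase with a downstream miR-21 binding site, 2000 cells/well. Titrations up to approximately 40 uM, 48 hours; luciferase luminescence read.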
JMJD2E inh: JMJD2E (human) inhibition. JMJD2E catalytic domain, FDH-coupled NADH fluorescence (FDH is formaldehyde dehydrogenase). Potency, µM (series often up to 57.1 µM), for inactives: top-dose activity change, negative = inhibition, actives largely listed as inhibitors. AID 2147. actives 1.6% (n = 230,000); active means well fitted inhibition curve with a large enough effect, not every such curve was filed as active; inconclusive means small, poorly fitted or top-dose-only effect, or another doubt; inactive means no such curve, though single readings can be large or run the other way;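 further: potency means the concentration at half of the fitted maximal effect; 0% = wells with enzyme and -100% = buffer wells without enzyme; nearly all actives have a fitted effect of over 50% in size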
LMNA splice mod: modulators of lamin A splicing | HeLa LMNA splicing GFP/RFP minigene ratio, 48 h | Potency, µM (doses to about 46.1 µM), for inactives: at the highest dose ratio change, negative = inhibition, actives largely listed as inhibitors | actives 0.01% (n = 200,000) | AID 1487; active means well fitted inhibition curve with a large enough effect in the signal ratio, with a control signal flat, not every such curve was filed as active; inconclusive means small, poorly fitted or top-dose-only effect, or effect the other way, or a change in a side signal; the % refers to the signal ratio; further: potency means the concentration at half of the fitted maximal effect; on the % scale 0 is the no-effect control and ±100 the full control effect
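S3 HeLa cells stably expressing lamin A-EGFP splicing minigene plus DsRed2, 600 cells/well, 48 h compound exposure at 37C. Laser-scanning cytometry; analysed as GFP (500-530 nm)/RFP (575-640 nm) total intensity ratio; 0.5% DMSO vehicle.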
Sfp PPTase inh: Sfp phosphopantetheinyl transferase inhibition; Q9F4F7; Biochemical Sfp PPTase activity, qHTS; Potency, µM, for the others: max response, negative = inhibition, usual class: inhibitors; hit rate 3.5% among 310,000; active = well fitted inhibition curve with a large enough effect; inconclusive = small, poorly fitted or top-dose-only effect, or another doubt; inactive = no such curve, though single readings can be large or run the other way;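 also: the enzyme is Sfp with the accession as filed and its product quenches rhodamine fluorescence; potency is read from the fitted curve at half-maximal effect; 0% = enzyme reaction without inhibitor and -100% = no enzyme wells; top concentration of the series not given in the record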
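Fluorescence-quenching assay: 15 nM Sfp-PPTase preincubated 15 min at room temperature with compound, then 5 uM rhodamine-CoA and 12.5 uM BHQ-2-labelled YbbR peptide added. Fluorescence (ex 525/em 598 nm) read at start and after 30 min; difference gives rate.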
ALDH1A1 inh: blocks purified human ALDH1A1 activity | Purified ALDH1A1, NADH fluorescence, propionaldehyde substrate | Potency, µM (highest dose often 75.3 µM), for the others: top-dose activity, negative = inhibition, most hits filed as inhibitors | actives 7.3% (n = 220,000); active means well fitted inhibition curve with a large enough effect, not every such curve was filed as active; inconclusive means small, poorly fitted or top-dose-only effect, or another doubt; inactive means no such curve, though single readings can be large or run the other way;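 further: potency means the concentration at half of the fitted maximal effect; plate controls were no enzyme wells and a reference inhibitor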
G9a inh: blocks human histone lysine methyltransferase G9a; Q96KQ7; G9a H3K9 monomethylation, AlphaScreen, 2 h; Potency, µM (series often up to 102 µM), without a hit: at the top dose activity, negative = inhibition, actives largely listed as inhibitors; actives 8.8% (n = 350,000); AID 504332; further: potency means the concentration at half of the fitted maximal effect; on the % scale 0 is the no-effect control and ±100 the full control effect; nearly all actives have a fitted effect of over 75% in size
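Step 1: enzyme (final 20 nM) with compound, 15 min RT. Step 2: substrate peptide 500 nM and SAM 20 uM, 2 h RT. Step 3: anti-H3K9me1 antibody and AlphaScreen beads, 10 min, then plate read.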
* hit, by the source's call; u = inconclusive; x = not tested or not shown; [ ] = dose if it differs, or a comment. Shown are actives, neighbours in structure and some others; about 13% of the full set was active somewhere. Unless noted, the call rests on the fitted dose curve; in most records, active means well fitted curve in the direction sought with a large enough effect; inconclusive means small, poorly fitted or top-dose-only effect, or another doubt; inactive means no such curve, though single readings can be large; an effect the other way counts as inactive or inconclusive.

1	Cc1nnc(NC(=O)CSc2ccc(-c3ccccn3)nn2)s1
2	CCc1nnc(NC(=O)CSc2ccc(-c3ccc(F)cc3)nn2)s1
3	CC(=O)N/C(=C\c1ccccc1)C(=O)OCC(=O)NC1CCS(=O)(=O)C1 (stereo not drawn)
4	NS(=O)(=O)c1ccc(CNC(=S)NCc2ccc(F)cc2)cc1
5	CCCCNC(=O)c1ccc(Cc2nc3ccccc3[nH]2)cc1
6	COc1ccc(-c2noc(Cn3c(=O)c4ccccc4n(CC(=O)Nc4cccc(OC)c4)c3=O)n2)cc1
screen / no. | 1 | 2 | 3 | 4 | 5 | 6
miR-21 reporter | -9.5% | -11.8% | x | 0.2% | x | -13.9%
JMJD2E inh | -111.5% | -8.1% | x | x | x | x
LMNA splice mod | -19.0%[46 µM] | x | x | x | x | x
Sfp PPTase inh | u | -10.8% | x | 8.0% | x | x
ALDH1A1 inh | u | -3.5% | x | x | -3.4% | x
G9a inh | 2.82µM* | 44.7µM* | 1.3%[59 µM] | 2.5% | x | -0.7%[59 µM]

7	O=C(NC(=S)NCCc1ccccn1)c1ccco1
8	CN(CCc1ccccn1)C(=S)NC(=O)c1ccco1
9	N#Cc1c(N)c(C#N)c(-c2ccc(O)cc2)c2c1CCCC2
10	N#Cc1c(N)sc(=S)c2c1CCCCC2
11	N#Cc1c(N)sc2c1CCCCCC2
12	OC12CC3C[C@H](C1)C(N1CCOCC1)[C@@H](C3)C2 (stereo partly drawn)
screen / no. | 7 | 8 | 9 | 10 | 11 | 12
miR-21 reporter | -24.8% | -4.7% | 2.0% | -6.9% | -11.9% | 1.2%
JMJD2E inh | -0.5% | -2.1% | u | 22.4µM* | -5.3% | x
LMNA splice mod | 3.6%[46 µM] | 8.6%[46 µM] | u | 6.6% | -6.8% | x
Sfp PPTase inh | 13.4% | u | -4.5% | 5.01µM* | 39.8µM* | 5.2%
ALDH1A1 inh | -9.0% | u | u | u | u | x
G9a inh | 1.3% | 20µM* | 0.3% | 4.47µM* | 17.8µM* | x

13	CC(C)NC(=O)c1sc(=S)n2c1[nH]c(=O)c1ccc(C(=O)NCCc3ccc(Cl)cc3)cc12
14	CCOc1ccc(CCNC(=O)c2ccc3c(=O)[nH]c4c(C(=O)NC(C)C)sc(=S)n4c3c2)cc1
15	COc1ccc(OC)c(CCNC(=O)c2ccc3c(=O)[nH]c4c(C(=O)NC(C)C)sc(=S)n4c3c2)c1
16	C[C@H]1[C@H](c2ccccc2)C[C@@H](C(=O)O)C1(C)C
17	CC(=O)c1c(Nc2ccc3c(c2)OCCO3)oc(C)cc1=O
18	Cc1ccccc1NC(=O)c1nc(S(C)(=O)=O)ncc1Cl
screen / no. | 13 | 14 | 15 | 16 | 17 | 18
miR-21 reporter | 2.5% | -1.8% | 0.9% | x | -38.2% | u
JMJD2E inh | x | x | x | x | -14.8% | x
LMNA splice mod | x | x | x | x | -7.5% | x
Sfp PPTase inh | -1.5% | -3.6% | u | x | 11.8% | -28.8%
ALDH1A1 inh | x | x | x | x | u | x
G9a inh | 44.7µM* | 44.7µM* | x | -20.7%[2.33 µM] | 79.4µM* | u

19	CS(=O)(=O)c1ncc(Cl)c(C(=O)Nc2ccc(N3CCOCC3)cc2)n1
20	CS(=O)(=O)c1ncc(Cl)c(C(=O)Nc2ccc(OC(F)F)cc2)n1
21	COC(=O)c1ccc2[nH]ccc2c1
22	N#CC1=C(N)N2C(=C(C#N)C1c1cccc(Br)c1)Nc1ccccc12 (stereo not drawn)
23	N#CC1=C(N)N2C(=C(C#N)C1c1ccccc1)Sc1ccccc12 (stereo not drawn)
24	Cc1ccc(C(=O)NCC(=O)OCC(=O)Nc2ccccc2C#N)s1
screen / no. | 19 | 20 | 21 | 22 | 23 | 24
miR-21 reporter | u | u | -25.0% | -6.7% | -1.9% | -1.4%
JMJD2E inh | -9.5% | x | x | u | -11.9% | -1.3%
LMNA splice mod | u | x | x | u | -4.8% | 2.3%[46 µM]
Sfp PPTase inh | -41.7% | u | 13.7% | 19.3% | u | 16.2%
ALDH1A1 inh | 10µM* | x | x | -7.6% | u | -1.5%
G9a inh | u | 28.2µM* | 6.2% | 10µM* | u | -8.3%

25	Cc1ccc(C(=O)NNC(=S)Nc2cccc(Cl)c2Cl)cc1[N+](=O)[O-]
26	CC(=O)Nc1cccc(NC(=O)c2ccc(C)c([N+](=O)[O-])c2)c1
27	Cc1ccc(C(=O)NC(=S)Nc2cccc(NC(=O)c3ccccc3Cl)c2)cc1[N+](=O)[O-]
28	CC(=O)c1cccc(NC(=S)NNC(=O)c2ccc(C)c([N+](=O)[O-])c2)c1
29	CC(=O)c1cccc(NCC(=O)c2ccc(C)c([N+](=O)[O-])c2)c1
30	Cl/C(=C\n1cncn1)c1ccc(Cl)cc1Cl
screen / no. | 25 | 26 | 27 | 28 | 29 | 30
miR-21 reporter | -13.4% | -29.2% | -13.6% | -16.2% | -7.4% | x
JMJD2E inh | 4.5% | -9.6% | 2.3% | -2.1% | x | -22.8%
LMNA splice mod | u | x | -5.3% | -4.8%[46 µM] | x | x
Sfp PPTase inh | -9.8% | 6.8% | 3.7% | 18.6% | 17.8µM* | 7.6%
ALDH1A1 inh | 2.82µM* | -5.1% | 12.6µM* | u | x | u
G9a inh | 4.7%[12.7 µM] | -36.6% | 0.0%[59 µM] | 20µM* | 35.5µM* | -31.6%[12.7 µM]

With a hit mark in JMJD2E inh (from the list above):
10	N#Cc1c(N)sc(=S)c2c1CCCCC2
screen / no. | 10
miR-21 reporter | -6.9%
JMJD2E inh | 22.4µM*
LMNA splice mod | 6.6%
Sfp PPTase inh | 5.01µM*
ALDH1A1 inh | u
G9a inh | 4.47µM*

Other compounds
31	Cc1c(NC(=O)COc2cccc(Cl)c2Cl)c(=O)n(-c2ccccc2)n1C
32	Cc1cccn2c(=O)cc(CSc3nnc(NC(=O)COc4ccc(F)cc4)s3)nc12
33	CN(C)C(N)=NCCC[C@H](N)C(=O)O
34	Cc1ccc(C(=O)NC(=S)Nc2cccc(NC(=O)c3ccccc3)c2)cc1[N+](=O)[O-]
35	Cc1cccc(NC(=O)C2CCCN(S(=O)(=O)c3ccc(Br)s3)C2)c1 (stereo not drawn)
36	Cc1nc2ccccc2n1CCc1nc2c3ccccc3nc(SCC(=O)Nc3ccc(C(C)C)cc3)n2n1
screen / no. | 31 | 32 | 33 | 34 | 35 | 36
miR-21 reporter | x | -4.0% | x | -16.7% | 0.6% | 14.9%
JMJD2E inh | x | x | 1.8% | -0.7% | x | x
LMNA splice mod | x | -5.5%[46 µM] | u | u | x | u
Sfp PPTase inh | x | x | x | -5.9% | x | x
ALDH1A1 inh | x | x | 7.6% | 15.8µM* | x | x
G9a inh | 23.5%[2.33 µM] | 6.6%[59 µM] | 45.4%[12.7 µM] | -1.6%[59 µM] | 1.1%[59 µM] | 5.1%[59 µM]

37	COc1ccc(-c2csc(Nc3cc(C)ccn3)n2)cc1OC
38	COc1ccc(-c2csc(Nc3ccc(C)cn3)n2)cc1OC
39	Cc1cccc(Nc2nc(-c3cccs3)cs2)n1
40	Cc1ccnc(Nc2nc(-c3ccccc3)cs2)c1
41	COc1ccc(-c2csc(Nc3cccc(C)n3)n2)cc1C
42	CCOC(=O)C(=CNc1ccc2c(c1)c1ccccc1n2CC)C(=O)OCC
screen / no. | 37 | 38 | 39 | 40 | 41 | 42
miR-21 reporter | -14.3% | -30.8% | -17.0% | -15.4% | -47.6% | -1.3%
JMJD2E inh | x | -27.6% | 4.4% | x | x | u
LMNA splice mod | x | u | u | x | x | x
Sfp PPTase inh | -28.1% | u | 0.7% | 6.6% | -16.2% | u
ALDH1A1 inh | x | 5.4% | u | x | x | x
G9a inh | 39.8µM* | 50.1µM* | 8.91µM* | -2.4% | 50.1µM* | 150.5%

Down the list, from the results shown.
Sfp PPTase inh, entries 37 to 42, in order: -28.1%, u, 0.7%, 6.6%, -16.2%, u

(further entries)
43	CCCN(CCC)C(=O)C1CCCN(c2ncnc3onc(-c4ccc(F)cc4)c23)C1 (stereo not drawn)
44	CCc1ccc(-n2nc(CO)c(C(=O)NC(C)c3ccc(Cl)cc3)n2)cc1 (stereo not drawn)
45	Cc1cc(C(F)(F)F)nc(SCC(=O)Nc2c(C)n(C)n(-c3ccccc3)c2=O)n1
46	CCn1cc(C(=O)N2CCN(c3ccccc3OC)CC2)c(=O)c2cc(S(=O)(=O)N3CCCCC3)ccc21
47	Cc1ccc(Nc2nc(-c3ccc(O)c(O)c3)cs2)nc1
48	Cc1ccc(Nc2nc(-c3ccc(F)cc3)cs2)nc1
49	CCOc1ccc(NC(=O)CCc2c(C)nc3cc(-c4ccccc4OC)nn3c2C)cc1
50	O=S(=O)(O)C(c1ccccc1)[C@@H](O)c1ccccc1 (stereo partly drawn)
screen / no. | 43 | 44 | 45 | 46 | 47 | 48 | 49 | 50
miR-21 reporter | -4.8% | -1.0% | -2.7% | -1.3% | -70.7% | -42.8% | -17.8% | x
JMJD2E inh | x | x | x | x | u | x | x | x
LMNA splice mod | 6.6%[46 µM] | x | x | x | 17.8%[46 µM] | x | x | x
Sfp PPTase inh | x | x | 13.4% | x | 35.5µM* | 11.0% | x | x
ALDH1A1 inh | x | x | x | x | -93.2% | x | x | 24.2%[13.5 µM]
G9a inh | -12.1%[59 µM] | 8.1%[59 µM] | -4.3% | -13.8%[59 µM] | 15.8µM* | -2.2%[59 µM] | 6.4%[59 µM] | x
